## Reported properties for industrial, environmental and drug-like chemicals

From the experimental data distributed with OPERA 2.9.

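The OPERA project collected these measurements from public sources as training and test data for property models. A listed value is a point estimate from one report or more. How each value was measured is not recorded, so precision varies. A value may pool stereoisomers or salt forms, and the file does not say which form was measured. Some upstream entries may be estimates or bounds without being marked so.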

Melting points are in °C. The boiling point refers to atmospheric pressure (760 mmHg), by the definition of the set. The octanol-water partition coefficient is given as log10; larger values mean a more lipophilic compound. Water solubility is log10 of mol/L, nominally at 25 °C; higher is more soluble. Vapor pressure is log10 of mmHg; the set covers 15 to 30 °C, mostly 20 to 25 °C. fu is the fraction unbound in human plasma, from 0 to 1. Intrinsic clearance (human, µL/min per 10^6 hepatocytes): higher is faster turnover, and 0 stands for none detected.

* CC(CC(=O)OCCN1C(C)(C)CC(OC(=O)CC(C)CC(C)(C)C)CC1(C)C)CC(C)(C)C (centres undefined): melting point -46 °C; log S -9.081 (log10 mol/L)
* CCC1(C)CC(=O)C(C)C(C)(CC)N1OC(C)c1ccccc1 (centres undefined): melting point -49.7 °C; log S -6.179 (log10 mol/L); vapor pressure -4.727 (log10 mmHg)
* CC(CC=O)CCCC(C)(C)O (centres undefined): logP (octanol/water) 1.68; log S -1.753 (log10 mol/L); vapor pressure -2.312 (log10 mmHg)
* CC1=CC2C(C=O)CC1CC2C(C)C (centres undefined): logP (octanol/water) 4.155; log S -3.851 (log10 mol/L); vapor pressure -1.822 (log10 mmHg)
* CC1CCC(C(C)C)C2(C1)OCC(CO)O2 (centres undefined): logP (octanol/water) 3.036; log S -2.279 (log10 mol/L); vapor pressure -2.824 (log10 mmHg)
* C=C(C)C(=O)OCC1CCCO1 (centres undefined): melting point -113 °C; boiling point 222 °C; logP (octanol/water) 1.76; vapor pressure -0.694 (log10 mmHg)
* O=S(=O)([O-])c1ccc(O)c(/N=N/c2ccc3c(O)cccc3c2O)c1.[Na+]: logP (octanol/water) -1.4; vapor pressure -7.498 (log10 mmHg)
* C/C=C/C(=O)[C@@H]1[C@@H](C)C=CCC1(C)C: melting point 10.78 °C; log S -3.396 (log10 mol/L)
* C=CC(=O)O[Si](C(C)C)(C(C)C)C(C)C: log S -4.944 (log10 mol/L); vapor pressure -1.133 (log10 mmHg)
* Cn1nc(-c2cc(OCC(=O)O)c(Cl)cc2F)c(Cl)c1OC(F)F: melting point 126 °C; log S -5.605 (log10 mol/L); vapor pressure -4.445 (log10 mmHg)
* OCc1ccc(Cl)cc1Cl: logP (octanol/water) 2.8; vapor pressure -2.936 (log10 mmHg)
* CCCCN(CCCC)c1nc(S)nc(S)n1: log S -3.394 (log10 mol/L); vapor pressure -10.36 (log10 mmHg)
* FC(C(F)(F)F)C(F)(F)F: plasma fu 0.4582; hepatic Clint 1 µL/min/10^6 cells
* CC(C)C=NCC1CCCC(CN=CC(C)C)C1 (centres undefined): boiling point 232.4 °C; vapor pressure -0.389 (log10 mmHg)
* COc1ccc(N2CCN(c3ccc([N+](=O)[O-])cc3)CC2)cc1: melting point 193 °C; logP (octanol/water) 3.4; log S -6.929 (log10 mol/L); vapor pressure -9.929 (log10 mmHg)
* O=[N+]([O-])c1ccc(O)cc1C(F)(F)F: boiling point 240.8 °C; logP (octanol/water) 2.84
* Cc1ccc(-n2nccn2)c(C(=O)O)c1: melting point 173.9 °C; vapor pressure -8.16 (log10 mmHg)
* CC(C)[C@H]1OCC[C@]2(C[C@H]3CC[C@]2(C)C3(C)C)O1: melting point 34 °C; boiling point 262 °C; log S -5.288 (log10 mol/L); vapor pressure -3.745 (log10 mmHg)
* CCCCC(CC)COC(=O)c1ccc(Nc2nc(Nc3ccc(C(=O)OCC(CC)CCCC)cc3)nc(Nc3ccc(C(=O)OCC(CC)CCCC)cc3)n2)cc1 (centres undefined): melting point 130 °C; log S -8.143 (log10 mol/L); vapor pressure -7.347 (log10 mmHg)
* CCC(=O)c1ccc2c(c1)N(CCCN1CCN(CCO)CC1)c1ccccc1S2: logP (octanol/water) 3.3; log S -3.672 (log10 mol/L)
* Cc1cc(/N=N/c2c(O)c(C(=O)[O-])cc3ccccc23)c(S(=O)(=O)[O-])cc1Cl.[Sr+2]: logP (octanol/water) 1.22; log S -7.528 (log10 mol/L)
* CCC(C(=O)O)c1ccc(N2C(=O)c3ccccc3C2=O)cc1 (centres undefined): melting point 214.2 °C; logP (octanol/water) 2.3; log S -4.603 (log10 mol/L); vapor pressure -9.639 (log10 mmHg)

Extract of 2 entries:

- CC(C)C=NCC1CCCC(CN=CC(C)C)C1 (centres undefined): boiling point 232.4 °C; vapor pressure -0.389 (log10 mmHg)
- CCC1(C)CC(=O)C(C)C(C)(CC)N1OC(C)c1ccccc1 (centres undefined): melting point -49.7 °C; log S -6.179 (log10 mol/L); vapor pressure -4.727 (log10 mmHg)